Measurements taken from patent publication US20240018161A1, “MODULATORS OF CYSTIC FIBROSIS TRANSMEMBRANE CONDUCTANCE REGULATOR” (VERTEX PHARMACEUTICALS INCORPORATED, priority 2020, published 2024).

Amino acid sequences for entries named in this document (tags omitted). Chains listed by the source or under a name are the forms on record and can include a tag or linker.
UniProt P13569, with tags, fused parts or gaps DEL508-508: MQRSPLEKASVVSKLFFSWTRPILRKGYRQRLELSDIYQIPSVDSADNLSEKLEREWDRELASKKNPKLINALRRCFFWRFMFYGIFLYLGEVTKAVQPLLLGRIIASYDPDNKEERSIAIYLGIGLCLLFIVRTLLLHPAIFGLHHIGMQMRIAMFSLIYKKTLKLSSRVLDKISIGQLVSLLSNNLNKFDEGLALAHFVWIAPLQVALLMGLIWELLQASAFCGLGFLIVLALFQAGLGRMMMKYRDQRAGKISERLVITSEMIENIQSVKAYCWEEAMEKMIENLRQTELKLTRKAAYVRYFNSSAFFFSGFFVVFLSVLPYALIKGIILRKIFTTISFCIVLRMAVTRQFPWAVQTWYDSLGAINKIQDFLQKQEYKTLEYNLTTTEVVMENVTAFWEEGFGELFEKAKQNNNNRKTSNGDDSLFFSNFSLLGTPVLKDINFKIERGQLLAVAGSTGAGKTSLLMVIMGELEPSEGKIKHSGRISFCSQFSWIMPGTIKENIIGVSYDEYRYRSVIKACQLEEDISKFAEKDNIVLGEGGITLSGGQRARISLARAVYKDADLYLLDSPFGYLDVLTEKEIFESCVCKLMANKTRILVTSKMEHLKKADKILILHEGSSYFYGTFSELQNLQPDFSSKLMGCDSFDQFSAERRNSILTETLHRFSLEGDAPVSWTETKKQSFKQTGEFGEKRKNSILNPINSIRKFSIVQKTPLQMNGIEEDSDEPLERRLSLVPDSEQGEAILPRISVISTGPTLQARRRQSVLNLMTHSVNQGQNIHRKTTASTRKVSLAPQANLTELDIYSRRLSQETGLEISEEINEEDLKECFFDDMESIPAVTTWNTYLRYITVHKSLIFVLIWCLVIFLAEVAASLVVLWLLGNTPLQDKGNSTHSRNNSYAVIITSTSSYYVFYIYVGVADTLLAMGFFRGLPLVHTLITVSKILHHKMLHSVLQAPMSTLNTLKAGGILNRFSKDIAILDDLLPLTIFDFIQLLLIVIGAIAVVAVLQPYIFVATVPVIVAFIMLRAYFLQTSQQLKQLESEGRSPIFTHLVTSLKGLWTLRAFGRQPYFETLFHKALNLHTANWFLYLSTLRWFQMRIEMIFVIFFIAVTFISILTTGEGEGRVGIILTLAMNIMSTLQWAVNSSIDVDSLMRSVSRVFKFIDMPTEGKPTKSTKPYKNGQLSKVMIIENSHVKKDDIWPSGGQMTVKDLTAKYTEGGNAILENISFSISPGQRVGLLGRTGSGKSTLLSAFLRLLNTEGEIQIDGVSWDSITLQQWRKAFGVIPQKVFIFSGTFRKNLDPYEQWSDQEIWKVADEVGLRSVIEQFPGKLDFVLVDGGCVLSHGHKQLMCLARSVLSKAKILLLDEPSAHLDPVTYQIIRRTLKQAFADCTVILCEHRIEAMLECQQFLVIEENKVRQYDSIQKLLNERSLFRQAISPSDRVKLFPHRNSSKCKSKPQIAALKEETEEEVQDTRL

Target: CFTR-mediated chloride transport in human intestinal epithelial enteroid cells (Homo sapiens, UniProt P13569)
Assay: Membrane potential dye, Enteroid Assay A
Type: cell-based
Settings: read-out: Ent. A EC50
Experimental: Base medium (ADF+++) consisted of Advanced DMEM/Ham's F12, 2 mM Glutamax, 10 mM HEPES, […] penicillin/streptomycin.
Bath 1 Buffer consisted of 1 mM MgCl2, 160 mM NaCl, 4.5 mM KCl, 10 mM HEPES, 10 mM Glucose, 2 mM CaCl2.
Chloride Free Buffer consisted of 1 mM Magnesium Gluconate, 2 mM Calcium Gluconate, 4.5 mM Potassium Gluconate, 160 mM Sodium Gluconate, 10 mM HEPES, 10 mM Glucose.
Bath1 Dye Solution consisted of Bath 1 Buffer, 0.04% Pluronic F127, 20 μM Methyl Oxonol, 30 μM CaCCinh-A01, 30 μM Chicago Sky Blue.
Chloride Free Dye Solution consisted of Chloride Free Buffer, 0.04% Pluronic F127, 20 μM Methyl Oxonol, 30 μM CaCCinh-A01, 30 μM Chicago Sky Blue.
3. […]
Briefly, cells were washed 5 times in Bath 1 Buffer. […] Chloride transport was initiated by addition of Chloride Free Dye Stimulation Solution and the fluorescence signal was read for 15 min. […] Chloride transport was then expressed as a percentage of the chloride transport following treatment with 3 μM N-[(6-amino-2-pyridyl)sulfonyl]-6-(3-fluoro-5-isobutoxy-phenyl)-2-[(4S)-2,2,4-trimethylpyrrolidin-1-yl]pyridine-3-carboxamide, 3 μM (R)-1-(2,2-difluorobenzo[d][1,3]dioxol-5-yl)-N-(1-(2,3-dihydroxypropyl)-6-fluoro-2-(1-hydroxy-2-methylpropan-2-yl)-1H-indol-5-yl)cyclopropanecarboxamide and 300 nM acute N-[2,4-bis(1,1-dimethylethyl)-5-hydroxyphenyl]-1,4-dihydro-4-oxoquinoline-3-carboxamide triple combination control (% Activity).

Cc1cccc(C)c1-c1cc2nc(n1)NS(=O)(=O)c1cccc(c1)C(=O)N1CCN(C3CCC(F)(F)CC3)C[C@@H](O2)[C@H]1CC(C)C [Compound 158]
EC50: < 1000 nM
